# Measurements: article PMC8831520, “Small molecule SWELL1 complex induction improves glycemic control and nonalcoholic fatty liver disease in murine Type 2 diabetes” (Nature Communications, 2022)
# How the values were obtained:
# [1] = system: T1, SWELL1 protein in 3T3-F442A adipocytes; assay: SWELL1 protein western blot in adipocytes; assay type: cell-based, murine; conditions: 10 and 1 μM, 4 days, then 6 h serum starving
# T1 construct: Western blots detecting SWELL1 and β-actin in WT 3T3-F442A adipocytes treated with either vehicle or SN-401 (10 µM) for 96 h; host or cells: 3T3-F442A preadipocytes and differentiated adipocytes (wild type)
# Method: For SN-401 treatment and insulin signaling studies in 3T3-F442A preadipocytes, the cells were incubated with either vehicle (DMSO) or 10 µM SN-401 for 96 h. The cells were serum-starved for 6 h with vehicle (DMSO) or SN-401 and washed with PBS three times and stimulated with 0, 3, and 10 nM insulin-containing media for 15 min prior to collecting lysates. In the case of 3T3-F442A adipocytes, the WT and KO cells were treated with either vehicle (DMSO), 1 or 10 µM SN-40X (after 7–11 days of differentiation) for 96 h and then stimulated with 0 and 10 nM insulin/serum-containing media with vehicle (DMSO) or SN-40X for 15 min for SWELL1 detection. For AKT and AS160 signaling, the WT and KO cells were treated with either vehicle (DMSO) or 500 nM SN-401 for 96 h and serum-starved in the presence of vehicle or SN-401 (500 nM) for 6 h. The cells were washed twice in hypotonic buffer (240 mOsm; 90 mM NaCl, 5 mM NaHCO3, 4.8 mM KCl, 1.2 mM KH2PO4, 2.5 mM CaCl2, 2.4 mM MgSO4, 10 mM HEPES, and 25 mM Glucose, pH 7.4) and then incubated at 37 °C in a hypotonic buffer for 10 min followed by a serum-free media wash and subsequent stimulation with insulin/serum-containing media for 30 min at 37 °C without SN-401 (or vehicle). […]
# T2D and non-T2D mice = assay: Metabolic phenotyping: fasting glucose, GTT, ITT; conditions: HFD-fed T2D C57 mice, 5 mg/kg/day p.o.
compound,measurement,setting,value
"CCCCC1(C2CCCC2)Cc2cc(OCCCC(=O)O)c(Cl)c(Cl)c2C1=O (centres unmarked) [SN-401, 4-((2-butyl-6,7-dichloro-2-cyclopentyl-1-oxo-2,3-dihydro-1H-inden-5-yl)oxy)butanoic acid]",SWELL1 protein level relative to vehicle-treated controls,[1],1.5–2.1 fold
same,in vivo therapeutic efficacy by oral gavage,T2D and non-T2D mice,fully retains in vivo therapeutic efficacy
